{
  "sequences": {"note": "Amino acid sequences for entries named in this document (tags omitted). Residues count along the entry.", "UniProt P00797, 67-406 limits assumed": "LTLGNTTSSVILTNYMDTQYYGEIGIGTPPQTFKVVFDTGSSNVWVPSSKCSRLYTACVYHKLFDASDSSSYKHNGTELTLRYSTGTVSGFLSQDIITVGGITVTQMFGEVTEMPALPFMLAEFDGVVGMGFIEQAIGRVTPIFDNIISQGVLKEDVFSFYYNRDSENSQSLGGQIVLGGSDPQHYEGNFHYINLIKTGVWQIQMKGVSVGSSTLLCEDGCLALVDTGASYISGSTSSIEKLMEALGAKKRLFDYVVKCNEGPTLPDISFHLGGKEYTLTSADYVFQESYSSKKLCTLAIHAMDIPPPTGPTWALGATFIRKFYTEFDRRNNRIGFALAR"},
  "source": "patent US20040204455A1",
  "about": "“Piperidine derivative rennin inhibitors” (priority 2003, published 2004)",
  "target": "human renin (Homo sapiens, UniProt P00797)",
  "assay": "Determination of Renin IC50 by tGFP FRET Assay",
  "settings": "Human recombinant renin, tandem GFP substrate 650 nM, renin and compound incubated 60 minutes before substrate, pH 7.4, tested form: HCl",
  "data": [
    {"smiles": "Fc1ccccc1COCCCOc1ccc([C@@H]2CCNC[C@@H]2NCc2ccc3cccnc3c2)cc1", "note": "(relative stereo)", "values": [
      {"measurement": "IC50", "result": 0.4, "unit": "µM"}
    ]}
  ]
}
